# In PMC7750258 (Progress in neuro-psychopharmacology & biological psychiatry, 2020):
# Amino acid sequences for entries named in this document (tags omitted).
# UniProt P47746, whole entry: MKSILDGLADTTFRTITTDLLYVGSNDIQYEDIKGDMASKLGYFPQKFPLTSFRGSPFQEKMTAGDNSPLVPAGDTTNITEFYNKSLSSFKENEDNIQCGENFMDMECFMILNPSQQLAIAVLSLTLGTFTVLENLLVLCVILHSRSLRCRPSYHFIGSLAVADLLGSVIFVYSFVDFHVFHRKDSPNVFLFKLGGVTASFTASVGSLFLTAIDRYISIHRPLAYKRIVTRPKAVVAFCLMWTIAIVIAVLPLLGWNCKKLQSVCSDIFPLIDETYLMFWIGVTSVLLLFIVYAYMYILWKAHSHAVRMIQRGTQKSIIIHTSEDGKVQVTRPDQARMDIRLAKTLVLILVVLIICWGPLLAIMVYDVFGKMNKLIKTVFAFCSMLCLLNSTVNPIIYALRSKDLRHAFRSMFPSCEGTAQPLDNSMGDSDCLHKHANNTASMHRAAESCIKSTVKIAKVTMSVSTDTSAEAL
# Biological target: CB1 receptor (Mus musculus, UniProt P47746)
# Test: [3H]CP55,940 displacement binding in mouse cerebellar membranes
# Set-up: species or system ICR mice
# Conditions: read-out: CB1 Binding Affinity (Ki in nM); male mice, cerebellum; N = 4 / value
smiles,measurement,value
"CCCCCc1cc(O)c2c(c1)OC(C)(C)[C@@H]1CCC(C)=C[C@@H]21 [THC, Δ^9-tetrahydrocanabinol]",Ki,41.3 nM
